Where two headings read alike, the source gives them in different places.
Key:
[1] = biological target: PDE 4 (phosphodiesterase IV); assay: PDE 4 inhibiting effect (3H-cAMP hydrolysis, PDE 4 active fraction from Balb/c mouse liver); assay type: biochemical; settings: PDE 4 fraction from Balb/c mice liver, 0.064 μM cAMP, 2 hours at 25° C., read-out: PDE4 IC50
Method: Methods for Evaluating the PDE 4 Inhibiting Effect
The PDE 4 (phosphodiesterase IV) inhibiting effect of the compounds of the present invention was performed by the following method, which was modified assay method described in Biochemical. […] That is, the livers obtained from three Balb/c mice (male, 12 weeks: obtainable from CLEA Japan, Inc.) were suspended with 30 mL of buffer solution B [20 mM of bis-tris, 5 mM of 2-mercaptoethanol, 2 mM of benzamidine, 2 mM of EDTA, 0.1 mM of 4-(2-aminoethyl)benzenesulfonyl hydrochloride, 50 mM of sodium acetate; pH 6.5], then homogenized by Polytron® homogenizer. The homogenate were centrifuged under 25,000×G for 10 minutes at 4° C. The supernatant was separated and thus obtained supernatant was further centrifuged under 100,000×G for 60 minutes at 4° C., and then filtrated with 0.2 μm filter to obtain the soluble fraction. • (2) The obtained soluble fraction was filled in equilibrium DEAE sepharose column (1×10 cm) with buffer solution B, and phosphodiesterase fractions were eluted by 120 mL of buffer solution B with linear gradient from 0.05 to 1M sodium acetate concentration. 5 mL each of 24 eluents were collected, and each eluents were examined for cyclic AMP metabolic activities of phosphodiesterase. […] After the reaction, suspension of Sephadex®-QAE in 10 mM of HEPES-Na (pH 7.0) was added to the reaction mixture, and the mixture was left at rest for 5 minutes.

The chains behind the UniProt entries cited, without tags or fusion partners. Where a name states a change or a piece, a line headed by the entry shows the natural chain unless it says otherwise.
UniProt Q13946: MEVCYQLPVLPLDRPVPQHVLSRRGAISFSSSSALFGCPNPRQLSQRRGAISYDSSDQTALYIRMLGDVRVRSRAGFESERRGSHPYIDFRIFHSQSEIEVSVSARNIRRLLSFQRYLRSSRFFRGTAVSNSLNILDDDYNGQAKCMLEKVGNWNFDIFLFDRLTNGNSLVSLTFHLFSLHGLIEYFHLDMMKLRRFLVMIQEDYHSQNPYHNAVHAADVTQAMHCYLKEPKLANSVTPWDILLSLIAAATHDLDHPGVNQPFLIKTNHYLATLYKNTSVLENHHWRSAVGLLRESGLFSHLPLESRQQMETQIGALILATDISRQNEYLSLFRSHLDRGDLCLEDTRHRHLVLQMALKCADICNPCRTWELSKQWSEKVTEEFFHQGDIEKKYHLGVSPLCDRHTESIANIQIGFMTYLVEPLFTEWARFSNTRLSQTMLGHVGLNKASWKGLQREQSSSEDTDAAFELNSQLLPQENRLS

[2] = biological target: PDE 7 (phosphodiesterase VII) (Homo sapiens (Human), UniProt Q13946); assay: PDE 7 inhibiting effect (3H-cAMP hydrolysis, PDE 7 active fraction from MOLT-4 cells); assay type: biochemical; settings: read-out: PDE7 IC50
Method: Methods for Evaluating the PDE 7 Inhibiting Effect
The PDE 7 (phosphodiesterase VII) inhibiting effect of the compounds of the present invention was performed by the following method, which was modified assay method described in Biochemical. Pharmacol. 48(6), 1219-1223 (1994). • (1) The active fraction of PDE 7 (phosphodiesterase VII) was obtained. That is, MOLT-4 (obtainable from ATCC as ATCC No. CRL-1582), which was cell line of human acute lymphoblastic lymphoma T cells, was incubated in RPMI1640 culture medium containing 10% fetal bovine serum to obtain 5×10^8 MOLT-4 cells. The cells were collected by centrifugation and suspended with 10 mL of buffer solution A [25 mM of tris-HCl, 5 mM of 2-mercaptoethanol, 2 mM of benzamidine, 2 mM of EDTA, 0.1 mM of 4-(2-aminoethyl)benzenesulfonyl hydrochloride; pH 7.5], then homogenized by Polytron® homogenizer. The homogenate were centrifuged under 25,000×G for 10 minutes at 4° C. The supernatant was separated and thus obtained supernatant was further centrifuged under 100,000×G for 60 minutes at 4° C., and then filtrated with 0.2 μm filter to obtain the soluble fraction. • (2) The obtained soluble fraction was filled in equilibrium HiTrap Q column (5 mL×2) with buffer solution A, and phosphodiesterase fractions were eluted by 300 mL of buffer solution A with linear gradient from 0 to 0.8 M NaCl concentration. […]

| Structure (SMILES) | IC50 [1] [nM] | other results |
| --- | --- | --- |
| Cc1nn(C2CCCCC2)c2sc(C(=O)Nc3ccc(N4CCC(O)CC4)cc3)cc12 [Example 114] | 1500 |  |
| Cc1nn(C2CCCCC2)c2sc(C(=O)Nc3ccc(N4CCC(O)CC4)c(F)c3)cc12 [Example 159, 1-Cyclohexyl-N-[3-fluoro-4-(4-hydroxy-1-piperidinyl)phenyl]-3-methyl-1H-thieno[2,3-c]pyrazole-5-carboxamide] | 1600 |  |
| Cc1nn(C2CCCCC2)c2sc(C(=O)NCCN3CC(=O)NC3=O)cc12 [Example 313, 1-Cyclohexyl-N-[2-(2,4-dioxo-1-imidazolidinyl)ethyl]-3-methyl-1H-thieno[2,3-c]pyrazole-5-carboxamide] |  | IC50 [2]: 90 nM |
| Cc1nn(C2CCCCC2)c2sc(C(=O)Nc3ccc(N4CCC(O)CC4)cc3)cc12 [Example 367, 1-Cyclohexyl-N-[4-(4-hydroxy-1-piperidinyl)phenyl]-3-methyl-1H-thieno[2,3-c]pyrazole-5-carboxamide methanesulfonate] |  | IC50 ([1]; methanesulfonate): 2300 nM |
